The list shows a part of the results, in another mix than the full data. Results filed as inconclusive are left out. Calls of active or inactive are those of the source. Calls follow the shape of the dose curve; as a rule, active = well fitted activation curve with a large enough effect; inconclusive = small, poorly fitted or top-dose-only effect; inactive = no such curve, though single readings can be large or run the other way.

The nature of the assay: qHTS for Activators of Integrin-Mediated Alleviation for Muscular Dystrophy.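 Also: 100% = response of the positive control SU9516; nearly all actives have a fitted effect of over 60% in size.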 As to conditions: alpha7betagal myoblasts, beta-gal FDG fluorescence, 48 h; at 38.3 µM (top of the series).
`COc1cc(C2NCCC3(OCCO3)C2(C)C)cc(OC)c1OC.O=[N+]([O-])c1cc([N+](=O)[O-])c(O)c([N+](=O)[O-])c1` (stereo unspecified): the activation is inactive: 2.37%.

The record behind these values is PubChem BioAssay AID624291 (National Center for Advancing Translational Sciences (NCATS), 2012).
